Values of other authors, collected in patent US6028084A, “Pyrazole derivatives, method for preparing same, and pharmaceutical compositions containing said derivatives” (Sanofi-Synthelabo, priority 1995, dated 2000).

The chains behind the UniProt entries cited, without tags or fusion partners.
UniProt P20272, whole entry: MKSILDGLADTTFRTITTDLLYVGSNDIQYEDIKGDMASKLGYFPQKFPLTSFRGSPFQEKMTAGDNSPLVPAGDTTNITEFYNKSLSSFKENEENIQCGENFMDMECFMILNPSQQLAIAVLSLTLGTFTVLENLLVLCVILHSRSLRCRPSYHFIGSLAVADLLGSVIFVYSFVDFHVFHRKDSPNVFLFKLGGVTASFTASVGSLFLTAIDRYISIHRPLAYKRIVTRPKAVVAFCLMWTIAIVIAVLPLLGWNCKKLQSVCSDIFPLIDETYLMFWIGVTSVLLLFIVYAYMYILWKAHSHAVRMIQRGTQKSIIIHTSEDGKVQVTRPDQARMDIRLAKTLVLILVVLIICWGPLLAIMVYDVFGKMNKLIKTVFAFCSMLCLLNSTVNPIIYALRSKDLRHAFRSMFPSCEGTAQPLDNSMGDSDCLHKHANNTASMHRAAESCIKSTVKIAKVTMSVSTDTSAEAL

Biological target: central cannabinoid receptors (Rattus norvegicus, UniProt P20272)
Details: as stated for EP-A-656 354

## Cc1c(C(=O)NN2CCCCC2)nn(-c2ccc(Cl)cc2Cl)c1-c1ccc(Cl)cc1 [SR 141 716, N-piperidino-5-(4-chlorophenyl)-1-(2,4-dichlorophenyl)-4-methylpyrazole-3-carboxamide]
  affinity for the central cannabinoid receptors: very good affinity
